Read-outs that look alike come from different tables or passages of the source.
Columns and labels:
D2 dopamine receptor = biological target: T1, D2 dopamine receptor (Rattus norvegicus, UniProt P61169); experiment: D2 dopamine receptor binding affinity, [3H]Spiperone
T1 construct: from tissue

5HT2 serotonine receptor = biological target: T2, 5HT2 serotonine receptor (Rattus norvegicus, UniProt P14842); experiment: 5HT2 serotonine receptor binding affinity, [3H]Ketanserine; conditions: read-out: IC50 5HT2 [3H]Ket.
T2 construct: from tissue
Experimental: The activity of the compounds of the present invention was evaluated for example in a series of receptorial binding affinity tests.
J. Pharmacol. 1977, 46, 377; Hyttel, J. Life Sci. 1981, 28, 563; Pedigo et al. Journal of Neurochemistry, 1981, 36, 220; Leysen et al. Molecular Pharmacology, 1981, 21, 301; Battaglia et al. Life Science, 1983, 33, 2011; Greengrass P., Brener R. Eur. J. Pharmacol., 1979, 55, 323; and Perry B. D., U'Prichard D. C. Eur. J. Pharmacol. 1981, 76, 461]
In the table cis-Flu. means cis-Flupenthixol; Spip. means Spiperone; Serot. means Serotonin; Ket. means Ketanserine; Praz. means Prazosin and Yohim. means Yohimbine, respectively. The above internal FCE codes refer to the following compounds

[1] = tested on: cataleptic activity in the mouse; conditions: in vivo, po; for ED50 Catalepsy: 6 h
D1 dopamine receptor = biological target: T3, D1 dopamine receptor (Rattus norvegicus, UniProt P18901); experiment: D1 dopamine receptor binding affinity, [3H]cis-Flupenthixol; conditions: read-out: IC50 D1 [3H]cisFlu.
T3 construct: from tissue

[2] = tested on: apomorphine-induced climbing behaviour in mice; experiment: antagonism of apomorphine-induced climbing behaviour in mice; type: in vivo, mouse; conditions: for ED50 Climbing: oral; for ED50: Mus musculus, po
Experimental: The activity of the compounds of the present invention on the central nervous system was also evaluated by following for instance the technique of Protais P. et al. (Psychopharmacology, 50, 1 (1976).
The toxicity of the compounds of the invention is negligible, therefore they can be safely used in therapy. Nine hours food deprived mice were treated orally with single administration of increasing doses, then housed and normally fed. The orientative acute toxicity (LD50) was assessed on the seventh day after the treatment and resulted, in general, higher than 600 mg/kg. Following Table 2 summarizes the biological data obtained according to the above mentioned tests for some compounds of the present invention; Haloperidol has been evaluated in the same tests for comparative purposes.

in vivo [3] = conditions: mouse, po
in vivo [4] = conditions: mouse, po, ED50 Catalepsy
mice = conditions: datum given according to Il Farmaco Ed. Sc. 1976, 31, 442; 10080 min; cited from earlier work

SMILES | IC50 (D2 dopamine receptor; IC50 D2 [3H]Spip.) [µM] | IC50 (5HT2 serotonine receptor) [µM] | ED50 Catalepsy [1] [mg/kg] | IC50 (D1 dopamine receptor) [µM] | ED50 Climbing [2] [mg/kg/os] | IC50 (D2 dopamine receptor; read-out: IC50 D2 [3H]Spip.) [µM] | LD50 at 168 h (in vivo [3]) [mg/kg] | (ED50 Catalepsy / ED50 Climbing) [1] | ED50 at 6 h (in vivo [4]) [mg/kg] | ED50 [2] [mg/kg] | LD50 (mice) [mg/kg/os]
O=C1NCN(c2ccccc2)C12CCN(CC1CN(c3ccccc3)c3ccccc3O1)CC2 (single isomer, unassigned; (+)) [FCE 25895, (+) 2-(1-phenyl-1,3,8-triazaspiro[4,5]decan-4-one-8-yl)-methyl-4-phenyl-2,3-dihydro-4H-1,4-benzoxazine] | 0.005 | 0.006 | 61 | 1.2 | 3.8 |  |  |  |  |  | 
O=C1NCN(c2ccccc2)C12CCN(CC1CN(c3ccccc3)c3ccccc3O1)CC2 (single isomer, unassigned; (-)) [FCE 25896, (-) 2-(1-phenyl-1,3,8-triazaspiro[4,5]decan-4-one-8-yl)-methyl-4-phenyl-2,3-dihydro-4H-1,4-benzoxazine] |  | 0.08 | 22.7 | > 10 | 1.8 | 0.2 | > 800 | 12.6 |  |  | 
O=C1NCN(c2ccccc2)C12CCN(CC1CN(c3ccccc3)c3ccccc3O1)CC2 (centres unmarked) [FCE 24867, 2-(1-phenyl-1,3,8-triazaspiro[4,5]decan-4-one-8-yl)-methyl-4-phenyl-2,3-dihydro-4H-1,4-benzoxazine] | 0.008 | 0.04 |  | 1.4 |  |  |  |  | 30.8 | 4.5 | 
O=C1NCN(c2ccccc2)C12CCN(CC1CN(c3ccc(F)cc3)c3ccc(F)cc3O1)CC2 (centres unmarked) [FCE 25452, 2-(1-phenyl-1,3,8-triazaspiro[4,5]decan-4-one-8-yl)-methyl-4-(4-fluorophenyl)-7-fluoro-2,3-dihydro-4H-1,4-benzoxazine] | 0.009 | 0.02 |  | 0.9 |  |  |  |  |  |  | 
OC1(c2cccc(C(F)(F)F)c2)CCN(CC2CN(c3ccccc3)c3ccccc3O2)CC1 (centres unmarked) [FCE 25456, 2-[4-(3-trifluoromethyl-phenyl)-4-hydroxy-piperidin-1-yl]-methyl-4-phenyl-2,3-dihydro-4H-1,4-benzoxazine] | 0.001 | 0.1 |  | > 10 |  |  | > 800 | 8 | 20 | 2.5 | 
O=C1NCN(c2ccccc2)C12CCN(CC1CN(c3ccc(F)cc3)c3ccccc3O1)CC2 (centres unmarked) [FCE 25676, 2-(1-phenyl-1,3,8-triazaspiro[4,5]decan-4-one-8-yl)-methyl-4-(4-fluorophenyl)-2,3-dihydro-4H-1,4-benzoxazine] | 0.002 | 0.02 |  | 1 |  |  |  |  | 75 | 4.9 | 
O=C1NCN(c2ccccc2)C12CCN(CC1CN(c3ccccc3)c3ccc(F)cc3O1)CC2 (centres unmarked) [FCE 25848, 2-(1-phenyl-1,3,8-triazaspiro[4,5]decan-4-one-8-yl)-methyl-4-phenyl-7-fluoro-2,3-dihydro-4H-1,4-benzoxazine] | 0.04 | 0.03 |  | 2.4 |  |  |  |  |  |  | 
O=C(CCCN1CCC(O)(c2ccc(Cl)cc2)CC1)c1ccc(F)cc1 [Haloperidol, reference compound] |  |  |  |  |  |  |  |  | 2.2 | 0.5 | 71

Reference: patent US5084454A, “2-(piperidinylmethyl)-4-phenyl-2,3-dihydro-4H-1,4-benzoxazines useful as antipsychotics” (Farmitalia Carlo Erba S.r.l., priority 1988, dated 1992)
